This is an account of results in ChEMBL document CHEMBL3414527, “Engineering potent and selective analogues of GpTx-1, a tarantula venom peptide antagonist of the Na(V)1.7 sodium channel” (J Med Chem, 2015).

Protein sequences, listed by entry. Tags and fused reporters are not part of them.
UniProt Q15858, whole entry: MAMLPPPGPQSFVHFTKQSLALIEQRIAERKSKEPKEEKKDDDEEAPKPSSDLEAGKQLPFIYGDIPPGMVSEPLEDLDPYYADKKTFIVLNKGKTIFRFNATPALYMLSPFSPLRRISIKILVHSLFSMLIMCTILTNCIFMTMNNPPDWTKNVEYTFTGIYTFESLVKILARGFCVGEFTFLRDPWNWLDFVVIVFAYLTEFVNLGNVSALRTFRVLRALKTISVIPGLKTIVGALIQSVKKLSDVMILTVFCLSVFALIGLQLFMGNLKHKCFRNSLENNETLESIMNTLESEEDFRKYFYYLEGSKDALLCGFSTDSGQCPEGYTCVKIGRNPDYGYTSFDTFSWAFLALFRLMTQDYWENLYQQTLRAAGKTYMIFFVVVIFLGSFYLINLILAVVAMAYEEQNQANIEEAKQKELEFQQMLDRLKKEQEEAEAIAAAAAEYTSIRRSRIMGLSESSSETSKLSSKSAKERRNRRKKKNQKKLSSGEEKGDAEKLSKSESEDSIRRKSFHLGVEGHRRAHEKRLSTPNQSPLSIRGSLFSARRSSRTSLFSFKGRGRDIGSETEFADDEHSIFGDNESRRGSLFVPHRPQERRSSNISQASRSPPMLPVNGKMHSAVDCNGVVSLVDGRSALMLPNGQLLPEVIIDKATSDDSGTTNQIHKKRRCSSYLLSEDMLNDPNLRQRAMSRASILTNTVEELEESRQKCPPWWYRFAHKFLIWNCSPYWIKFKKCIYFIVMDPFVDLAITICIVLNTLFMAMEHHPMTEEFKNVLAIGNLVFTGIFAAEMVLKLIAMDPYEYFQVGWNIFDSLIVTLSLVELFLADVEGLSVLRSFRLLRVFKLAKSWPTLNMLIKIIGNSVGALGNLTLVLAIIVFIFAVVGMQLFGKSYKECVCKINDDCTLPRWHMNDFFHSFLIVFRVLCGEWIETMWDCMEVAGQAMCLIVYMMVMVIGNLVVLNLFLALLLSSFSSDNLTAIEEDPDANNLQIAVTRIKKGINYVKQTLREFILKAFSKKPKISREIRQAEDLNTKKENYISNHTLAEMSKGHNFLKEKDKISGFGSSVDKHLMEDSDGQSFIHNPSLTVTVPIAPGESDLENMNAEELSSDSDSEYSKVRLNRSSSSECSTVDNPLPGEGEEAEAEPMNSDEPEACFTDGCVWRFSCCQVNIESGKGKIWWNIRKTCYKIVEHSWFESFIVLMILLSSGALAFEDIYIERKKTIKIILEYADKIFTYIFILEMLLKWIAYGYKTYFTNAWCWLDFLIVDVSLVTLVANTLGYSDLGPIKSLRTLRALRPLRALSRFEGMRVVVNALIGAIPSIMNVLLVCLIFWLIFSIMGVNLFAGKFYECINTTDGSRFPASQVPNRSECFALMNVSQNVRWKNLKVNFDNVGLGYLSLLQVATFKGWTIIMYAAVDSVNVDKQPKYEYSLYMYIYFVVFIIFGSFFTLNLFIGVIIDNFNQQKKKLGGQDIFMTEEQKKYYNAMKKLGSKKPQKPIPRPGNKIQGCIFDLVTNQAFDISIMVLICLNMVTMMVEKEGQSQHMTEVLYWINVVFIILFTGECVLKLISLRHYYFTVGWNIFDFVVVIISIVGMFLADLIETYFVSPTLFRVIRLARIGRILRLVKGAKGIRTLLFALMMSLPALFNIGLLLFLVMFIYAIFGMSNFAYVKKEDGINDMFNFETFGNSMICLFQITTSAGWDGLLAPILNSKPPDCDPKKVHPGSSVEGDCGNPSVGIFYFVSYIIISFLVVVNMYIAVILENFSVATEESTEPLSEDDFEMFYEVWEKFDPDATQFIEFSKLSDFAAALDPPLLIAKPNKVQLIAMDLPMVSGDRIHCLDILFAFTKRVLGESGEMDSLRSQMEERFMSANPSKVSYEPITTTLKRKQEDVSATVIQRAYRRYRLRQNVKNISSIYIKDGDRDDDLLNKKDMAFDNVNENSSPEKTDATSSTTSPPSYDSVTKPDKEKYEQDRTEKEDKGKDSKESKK
UniProt Q14524, whole entry: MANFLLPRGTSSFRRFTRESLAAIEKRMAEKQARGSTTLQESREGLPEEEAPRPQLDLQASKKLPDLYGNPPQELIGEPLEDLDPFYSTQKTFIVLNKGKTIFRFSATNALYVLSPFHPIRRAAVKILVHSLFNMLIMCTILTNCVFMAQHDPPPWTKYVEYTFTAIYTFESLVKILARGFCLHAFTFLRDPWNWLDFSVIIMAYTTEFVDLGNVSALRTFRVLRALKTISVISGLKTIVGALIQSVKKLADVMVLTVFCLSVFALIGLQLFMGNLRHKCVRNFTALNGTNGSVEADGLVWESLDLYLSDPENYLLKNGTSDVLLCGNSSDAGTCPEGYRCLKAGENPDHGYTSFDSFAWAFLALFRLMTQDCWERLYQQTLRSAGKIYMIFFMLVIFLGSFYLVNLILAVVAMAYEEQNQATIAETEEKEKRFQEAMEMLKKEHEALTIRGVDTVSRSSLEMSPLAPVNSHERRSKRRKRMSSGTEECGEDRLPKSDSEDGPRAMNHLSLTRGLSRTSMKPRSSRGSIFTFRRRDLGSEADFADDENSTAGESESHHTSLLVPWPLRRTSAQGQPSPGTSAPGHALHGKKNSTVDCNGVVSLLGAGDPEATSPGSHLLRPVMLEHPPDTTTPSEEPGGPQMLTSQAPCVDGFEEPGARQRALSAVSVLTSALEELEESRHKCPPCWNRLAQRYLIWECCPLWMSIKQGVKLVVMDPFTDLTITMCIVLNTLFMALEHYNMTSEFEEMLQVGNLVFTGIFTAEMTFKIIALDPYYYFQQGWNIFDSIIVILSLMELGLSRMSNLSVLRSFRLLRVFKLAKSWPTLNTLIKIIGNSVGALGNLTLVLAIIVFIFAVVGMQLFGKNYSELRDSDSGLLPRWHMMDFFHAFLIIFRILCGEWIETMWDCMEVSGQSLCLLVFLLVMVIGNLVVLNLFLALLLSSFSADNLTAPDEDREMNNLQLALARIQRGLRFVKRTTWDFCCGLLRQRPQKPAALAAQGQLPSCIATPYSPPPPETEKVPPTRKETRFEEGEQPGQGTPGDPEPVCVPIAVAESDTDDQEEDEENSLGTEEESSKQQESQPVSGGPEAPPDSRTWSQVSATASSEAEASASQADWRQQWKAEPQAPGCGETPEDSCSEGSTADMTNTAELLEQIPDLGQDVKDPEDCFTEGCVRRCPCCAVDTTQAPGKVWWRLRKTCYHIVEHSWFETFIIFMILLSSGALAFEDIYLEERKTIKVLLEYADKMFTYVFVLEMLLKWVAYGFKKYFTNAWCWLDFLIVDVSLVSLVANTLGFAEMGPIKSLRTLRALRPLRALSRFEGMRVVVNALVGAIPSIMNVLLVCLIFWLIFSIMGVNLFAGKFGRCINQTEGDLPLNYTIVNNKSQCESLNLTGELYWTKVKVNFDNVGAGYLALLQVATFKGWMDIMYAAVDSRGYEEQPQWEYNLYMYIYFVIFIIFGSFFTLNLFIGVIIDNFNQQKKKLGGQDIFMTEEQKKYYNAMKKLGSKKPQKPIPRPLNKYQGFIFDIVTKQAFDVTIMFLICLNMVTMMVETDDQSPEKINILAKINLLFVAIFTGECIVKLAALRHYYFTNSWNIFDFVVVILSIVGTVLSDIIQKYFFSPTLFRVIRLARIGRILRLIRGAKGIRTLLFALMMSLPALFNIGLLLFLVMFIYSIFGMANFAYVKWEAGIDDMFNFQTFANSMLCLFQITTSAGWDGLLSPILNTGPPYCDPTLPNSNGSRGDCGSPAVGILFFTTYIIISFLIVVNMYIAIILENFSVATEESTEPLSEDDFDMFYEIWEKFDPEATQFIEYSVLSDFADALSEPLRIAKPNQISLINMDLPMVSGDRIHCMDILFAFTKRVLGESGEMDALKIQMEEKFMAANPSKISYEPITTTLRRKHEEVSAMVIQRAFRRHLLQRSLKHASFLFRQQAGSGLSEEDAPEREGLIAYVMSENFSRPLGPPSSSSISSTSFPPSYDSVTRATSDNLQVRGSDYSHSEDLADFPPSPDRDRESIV

In experiment [1] the target is Sodium channel protein type 9 subunit alpha (Homo sapiens, UniProt Q15858). Briefly: Inhibition of human NaV1.7 at -140 mV holding potential by whole-cell patch clamp assay. (In general: In patch-clamp work, channel activity is measured electrically.)
Experiment [2] deals with Sodium channel protein type 5 subunit alpha (Homo sapiens, UniProt Q14524). In words: Inhibition of human NaV1.5 at -140 mV holding potential by whole-cell patch clamp assay.

`CC[C@H](C)[C@@H]1NC(=O)[C@@H]2CSSC[C@@H]3NC(=O)[C@H](C(C)C)NC(=O)[C@H](CC(C)C)NC(=O)[C@H](CC(N)=O)NC(=O)[C@@H]4CCCN4C(=O)[C@H](CCCNC(=N)N)NC(=O)[C@H](CSSC[C@H](NC(=O)[C@@H](N)CC(=O)O)C(=O)N[C@@H](CC(C)C)C(=O)NCC(=O)N[C@@H](C)C(=O)N[C@@H](CC(C)C)C(=O)N[C@@H](CCCNC(=N)N)C(=O)N[C@@H](CCCCN)C(=O)N2)NC(=O)[C@H](CSSC[C@@H](C(=O)N[C@@H](CCCCN)C(=O)N[C@@H](Cc2ccc(O)cc2)C(=O)N[C@H](C(=O)N[C@@H](Cc2ccccc2)C(N)=O)C(C)C)NC(=O)[C@H](Cc2c[nH]c4ccccc24)NC(=O)[C@H](CCCCN)NC(=O)[C@H](Cc2cnc[nH]2)NC(=O)[C@H]([C@@H](C)O)NC(=O)[C@H](CCCNC(=N)N)NC(=O)[C@H](CO)NC3=O)NC(=O)[C@H](CCCCN)NC(=O)[C@H](CC(=O)O)NC(=O)[C@H](CC(N)=O)NC(=O)[C@H](CC(=O)O)NC(=O)[C@@H]2CCCN2C1=O`: the IC50 in experiment [1] was 28 nM; in experiment [2], more than 10000 nM.
With `CC[C@H](C)[C@@H]1NC(=O)[C@@H]2CSSC[C@@H]3NC(=O)[C@H](C(C)C)NC(=O)[C@H](CC(C)C)NC(=O)[C@H](CC(N)=O)NC(=O)[C@@H]4CCCN4C(=O)[C@H](CCCNC(=N)N)NC(=O)[C@H](CSSC[C@H](NC(=O)[C@@H](N)CC(=O)O)C(=O)N[C@@H](CC(C)C)C(=O)NCC(=O)N[C@@H](C)C(=O)N[C@@H](Cc4ccccc4)C(=O)N[C@@H](CCCNC(=N)N)C(=O)N[C@@H](CCCCN)C(=O)N2)NC(=O)[C@H](CSSC[C@@H](C(=O)N[C@@H](CCCCN)C(=O)N[C@@H](Cc2ccc(O)cc2)C(=O)N[C@H](C(=O)N[C@@H](Cc2ccccc2)C(N)=O)C(C)C)NC(=O)[C@H](Cc2c[nH]c4ccccc24)NC(=O)[C@H](CCCCN)NC(=O)[C@H](Cc2cnc[nH]2)NC(=O)[C@H]([C@@H](C)O)NC(=O)[C@H](CCCNC(=N)N)NC(=O)[C@H](CO)NC3=O)NC(=O)[C@H](CCCCN)NC(=O)[C@H](CC(=O)O)NC(=O)[C@H](CC(N)=O)NC(=O)[C@H](CC(=O)O)NC(=O)[C@@H]2CCCN2C1=O`, the IC50 in experiment [1] was 13 nM; in experiment [2], more than 10000 nM.
Turning to `CC[C@H](C)[C@@H]1NC(=O)[C@@H]2CSSC[C@@H]3NC(=O)[C@H](C(C)C)NC(=O)[C@H](CC(C)C)NC(=O)[C@H](CC(N)=O)NC(=O)[C@@H]4CCCN4C(=O)[C@H](CCCNC(=N)N)NC(=O)[C@H](CSSC[C@H](NC(=O)[C@@H](N)CC(=O)O)C(=O)N[C@@H](CC(C)C)C(=O)NCC(=O)N[C@@H](C)C(=O)N[C@@H](Cc4ccccc4)C(=O)N[C@@H](CCCNC(=N)N)C(=O)N[C@@H](CCCCN)C(=O)N2)NC(=O)[C@H](CSSC[C@@H](C(=O)N[C@@H](CCCCN)C(=O)N[C@@H](Cc2ccc(O)cc2)C(=O)N[C@H](C(=O)N[C@@H](Cc2ccccc2)C(N)=O)C(C)C)NC(=O)[C@H](Cc2c[nH]c4ccccc24)NC(=O)[C@H](CCCNC(=N)N)NC(=O)[C@H](Cc2cnc[nH]2)NC(=O)[C@H]([C@@H](C)O)NC(=O)[C@H](CCCNC(=N)N)NC(=O)[C@H](CO)NC3=O)NC(=O)[C@H](CCCCN)NC(=O)[C@H](CC(=O)O)NC(=O)[C@H](CC(N)=O)NC(=O)[C@H](CC(=O)O)NC(=O)[C@@H]2CCCN2C1=O`, the IC50 in experiment [1] is 11 nM; in experiment [2] it was more than 10000 nM.
With `CC[C@H](C)[C@@H]1NC(=O)[C@@H]2CSSC[C@@H]3NC(=O)[C@H](C(C)C)NC(=O)[C@H](CC(C)C)NC(=O)[C@H](CC(N)=O)NC(=O)[C@@H]4CCCN4C(=O)[C@H](CCCNC(=N)N)NC(=O)[C@H](CSSC[C@H](NC(=O)[C@@H](N)CC(=O)O)C(=O)N[C@@H](CC(C)C)C(=O)NCC(=O)N[C@@H](C)C(=O)N[C@@H](CC(C)C)C(=O)N[C@@H](CCCNC(=N)N)C(=O)N[C@@H](CCCCN)C(=O)N2)NC(=O)[C@H](CSSC[C@@H](C(=O)N[C@@H](CCCCN)C(=O)N[C@@H](Cc2ccc(O)cc2)C(=O)N[C@H](C(=O)N[C@@H](Cc2ccccc2)C(N)=O)C(C)C)NC(=O)[C@H](Cc2c[nH]c4ccccc24)NC(=O)[C@H](CCCNC(=N)N)NC(=O)[C@H](Cc2cnc[nH]2)NC(=O)[C@H]([C@@H](C)O)NC(=O)[C@H](CCCNC(=N)N)NC(=O)[C@H](CO)NC3=O)NC(=O)[C@H](CCCCN)NC(=O)[C@H](CC(=O)O)NC(=O)[C@H](CC(N)=O)NC(=O)[C@H](CC(=O)O)NC(=O)[C@@H]2CCCN2C1=O`, the IC50 in experiment [1] is 8 nM; in experiment [2] it was more than 10000 nM.

As a reminder, the IC50 is the concentration needed to halve the response being measured. A higher IC50 goes with weaker potency in that assay.
